The values that follow come from US20190352367A1.

This assay concerns the target NANOG, endogenous in breast cell lysates (UniProt Q9H9S0). Briefly: cell-based or functional assay.

Turning to “GFP-tagged G59A mutant Cx26 (from UniProt P29033 1-226)”, the sphere initiation frequency (limiting dilution sphere-forming assay, MDA-MB-231 parental cells) was 78.4 1 in n cells.

As to “GFP-tagged D66H mutant Cx26 (from UniProt P29033 1-226)”, the sphere initiation frequency (limiting dilution sphere-forming assay, MDA-MB-231 parental cells) was 77.8 1 in n cells. The figure for “GFP-tagged wild-type Cx26 (from UniProt P29033 1-226)” is 31.6 1 in n cells.
